Target: Sodium-dependent serotonin transporter (Rattus norvegicus, UniProt P31652)
Experiment: Compound was tested for the inhibition of serotonin [3H]SER reuptake into rat forebrain membranes
Type: cell membranes, Membrane

Protein sequences, listed by entry. Tags and fused reporters are not part of them.
UniProt P31652, whole entry: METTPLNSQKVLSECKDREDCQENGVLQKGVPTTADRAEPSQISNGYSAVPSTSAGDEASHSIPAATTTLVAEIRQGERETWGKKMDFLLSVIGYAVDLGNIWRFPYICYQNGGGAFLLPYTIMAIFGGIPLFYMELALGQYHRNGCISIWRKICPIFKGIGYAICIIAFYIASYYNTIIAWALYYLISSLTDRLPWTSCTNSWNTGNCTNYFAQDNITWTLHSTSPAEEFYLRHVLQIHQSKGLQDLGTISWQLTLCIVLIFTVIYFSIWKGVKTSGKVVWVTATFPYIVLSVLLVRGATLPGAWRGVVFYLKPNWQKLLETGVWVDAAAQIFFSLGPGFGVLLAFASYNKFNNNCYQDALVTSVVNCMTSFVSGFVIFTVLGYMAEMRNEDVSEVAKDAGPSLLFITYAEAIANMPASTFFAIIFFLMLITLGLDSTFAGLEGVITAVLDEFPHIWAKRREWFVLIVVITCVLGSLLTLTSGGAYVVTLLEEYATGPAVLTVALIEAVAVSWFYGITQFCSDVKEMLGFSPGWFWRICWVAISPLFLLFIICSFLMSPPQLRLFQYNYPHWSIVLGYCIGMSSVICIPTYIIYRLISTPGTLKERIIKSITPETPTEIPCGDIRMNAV

COC(=O)[C@@H]1C2CCC(C[C@@H]1C(=O)Oc1ccccc1)N2C (stereo partly specified)
Ki: 155 nM
